Experimental findings from PubChem BioAssay AID1918 (Vanderbilt High Throughput Screening Facility, 2009) are described below.

By UniProt entry, the sequences of proteins in these tests, tags left out.
UniProt P48048, whole entry: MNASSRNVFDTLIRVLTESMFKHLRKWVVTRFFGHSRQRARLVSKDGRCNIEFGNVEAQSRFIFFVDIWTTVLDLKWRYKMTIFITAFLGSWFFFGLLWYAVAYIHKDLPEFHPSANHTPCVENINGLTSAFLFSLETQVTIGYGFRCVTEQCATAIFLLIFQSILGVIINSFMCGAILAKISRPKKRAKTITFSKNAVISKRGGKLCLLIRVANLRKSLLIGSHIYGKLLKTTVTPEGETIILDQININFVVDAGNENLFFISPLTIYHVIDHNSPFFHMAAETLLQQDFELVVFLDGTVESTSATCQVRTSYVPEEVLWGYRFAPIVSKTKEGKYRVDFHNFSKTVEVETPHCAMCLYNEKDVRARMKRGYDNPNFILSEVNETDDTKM

Only a part is listed here, and it is no random draw. The source made the active and inactive calls.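 How the source made its calls: active means signal ratio slope over the read window, or its plate-corrected B-score, at least 3 SD from the plate mean, either direction; inactive means the rest.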

In this test the target is ATP-sensitive inward rectifier potassium channel 1 (Homo sapiens) (UniProt P48048). Briefly: ROMK potassium channel modulators, primary screen, cell-based, thallium flux, MLSMR library (AID 1918).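 Further: B-score of the F/F0 ratio slope over 7 to 12 s after thallium.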 The settings on record: Tet-inducible ROMK, thallium flux fluorescence; at 10 µM; actives lie on both sides.
For `COc1ccc(NC2CCN(C(=O)OC(C)(C)C)CC2)cc1`, the B-score is inactive: 0.752. For `CN1CCN(CCOC(=O)C(O)(c2ccccc2)c2ccccc2)CC1`, the B-score was inactive: 1.55.

As to `O=C(NCC1(N2CCCCC2)CCCCC1)c1cccc([N+](=O)[O-])c1`, the B-score was inactive: 0.307.

As for `CC(C)c1ccc(NC2CCN(C(=O)OC(C)(C)C)CC2)cc1`, the B-score is inactive: 0.112. In the case of `COc1ccc(CN(CCCl)CCCl)cc1Cl` it was inactive: -0.149. Next, `CN(C)c1cccc(C(=O)NCC2(N3CCCCC3)CCCCC2)c1`: inactive: 0.253. Next, `O=C(OC1CN2CCC1CC2)C1c2ccccc2Oc2ccccc21` (configuration not stated): inactive: -2.82; `CCOC(=O)N1CCC(Nc2ccc(OC)cc2)CC1`: inactive: -0.31; `COc1ccc(C(=O)NCC2(N3CCCCC3)CCCCC2)c(OC)c1OC`: inactive: -0.167. As for `COc1ccc(NC2CCN(CCc3ccccc3)CC2)c(OC)c1`, the B-score was inactive: -2.14. In the case of `CCN1CCC(Nc2cccc(F)c2)CC1` it was inactive: -0.375; in that of `CN(C)c1ccc(C(=O)NCC2(N3CCCCC3)CCCCC2)cc1`, inactive: -0.192. Next, `COc1cc(OC)cc(C(=O)NCC2(N3CCOCC3)CCCCC2)c1`: inactive: 1.29. In the case of `CC(C)(C)OC(=O)N1CCC(Nc2ccccc2)CC1`, the B-score is inactive: 0.151. In the case of `O=C(OC1CN2CCC1CC2)C1c2ccccc2C=Cc2ccccc21` (configuration not stated) it was inactive: -0.774; in that of `COc1ccc(C(=O)NCC2(N3CCOCC3)CCCCC2)cc1OC`, inactive: 1; in that of `N#Cc1ccc(C(=O)NCC2(N3CCCCC3)CCCCC2)cc1`, inactive: 1.29.
